From patent EP4692061A1, “LOW-MOLECULAR-WEIGHT COMPOUND HAVING CEREBLON-BINDING ACTIVITY, AND USE THEREOF” (Aevis Bio, Inc., priority 2023, dated 2024)

Biological target: cereblon (CRBN) (Homo sapiens, UniProt Q96SW2)
Test: In vitro CRBN binding assay (AlphaScreen, competitive inhibition of the PROTAC assay)
Conditions: read-out: Alpha IC50, Table 1, PROTAC Optimization Kit for BET Bromodomain-Cereblon Binding

Q: Cc1cccc(S(=O)(=O)Nc2cccc(C3CCC(=O)NC3=O)c2)c1 (stereo not shown) [AEV40069] was tested. Which IC50 did it give?
A: The IC50 was 1290 nM.
